The source of these data is patent US20260102468A1, “COMPOSITIONS AND METHODS FOR MARCO INHIBITION AND IMPROVED DRUG DELIVERY” (BOARD OF REGENTS, THE UNIVERSITY OF TEXAS SYSTEM, priority 2022, published 2026).

Consider `COc1cccc2c1C(=O)c1c(O)c3c(c(O)c1C2=O)C[C@@](O)(C(=O)CO)C[C@@H]3O[C@H]1C[C@H](N)[C@H](O)[C@H](C)O1` [doxorubicin], for which, where the note is “ex vivo fluorescence imaging after liposomal doxorubicin”, the “organ distribution of doxorubicin” value is “most of the doxorubicin was taken up by the liver”. Also, the “relative tumor/liver doxorubicin concentration, young versus old” value (total emission normalized by organ weight) was “more drugs had been delivered to the tumor in the young mice relative to the liver of the old mice”.
